# Earlier results, collected in patent US7235142B2, “Non-toxic corrosion-protection rinses and seals based on cobalt” (University of Dayton, priority 2002, dated 2007).
# Conditions: pH 7
substance,measurement,value
Ammonium fluorogermanate,Solubility in Water,~1 × 10^0^ mole/L
